These results are taken from ChEMBL document CHEMBL5143511, “Positioning of an unprecedented 1,5-oxaza spiroquinone scaffold into SMYD2 inhibitors in epigenetic space” (Eur J Med Chem, 2022).

The chains behind the UniProt entries cited, without tags or fusion partners. Where a name states a change or a piece, a line headed by the entry shows the natural chain unless it says otherwise.
UniProt Q9NRG4: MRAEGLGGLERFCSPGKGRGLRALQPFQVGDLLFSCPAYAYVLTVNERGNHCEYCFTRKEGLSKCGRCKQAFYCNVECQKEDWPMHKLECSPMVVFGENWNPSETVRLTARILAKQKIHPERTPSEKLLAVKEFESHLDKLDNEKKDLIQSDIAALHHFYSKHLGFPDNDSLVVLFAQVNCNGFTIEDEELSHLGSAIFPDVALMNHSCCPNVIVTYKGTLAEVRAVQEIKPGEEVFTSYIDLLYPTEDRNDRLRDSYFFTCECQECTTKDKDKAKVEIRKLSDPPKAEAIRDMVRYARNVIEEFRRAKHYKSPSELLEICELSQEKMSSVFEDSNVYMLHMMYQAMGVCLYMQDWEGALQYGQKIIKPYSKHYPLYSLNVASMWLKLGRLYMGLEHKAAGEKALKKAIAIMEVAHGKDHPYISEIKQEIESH

Each structure is given as a SMILES string.

The IC50 is the concentration that inhibits the measured activity by half.

This assay concerns the target N-lysine methyltransferase SMYD2 (Homo sapiens, UniProt Q9NRG4). Briefly: Inhibition of SMYD2 (unknown origin) using 3H-SAM as substrate incubated for 1 hr by filter binding method.

In turn, `CCN(C(=O)CO)C1CN(/C(=N\C#N)Nc2cccc(OC(F)F)c2)N=C1c1ccc(Cl)c(Cl)c1` (stereo unspecified) yielded a half-maximal inhibitory concentration (IC50) of 27 nM.
